Test results as given in ChEMBL document CHEMBL2062486, “HIV-1 Integrase Inhibitor-Inspired Antibacterials Targeting Isoprenoid Biosynthesis” (ACS Med Chem Lett, 2012).

Test: Inhibition of Staphylococcus aureus UPPS-mediated undecaprenyl pyrophosphate synthesis by continuous spectrophotometric assay

## CCCCCCOc1cccc(Cn2ccc(O)c(C(=O)O)c2=O)c1
  IC50: 8.2 µM
